Molecules are shown by their SMILES. Only a part is listed here, and it is no random draw. Active and inactive are the calls of the source.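 The calls were made as follows: active = fluorescence response below 15%; inactive = the rest.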

The experiment can be described thus: DHE quenching or ROS scavenging interference in aged yeast, artefact control for yeast caloric restriction mimetic project, S. cerevisiae BY4741, flow cytometry (AID 435000).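 Also: percent of the mean fluorescence averaged over all compound wells on the plate; lower means stronger quenching of DHE signal or ROS scavenging.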 As to conditions: at 10 µM, active compounds read low. (A flow cytometer gives signals particle by particle.)

In the case of `O=C(OC1CN2CCC1CC2)c1ccccc1` (stereo unspecified), the fluorescence response was inactive: 96.6%.

The values above are taken from PubChem BioAssay AID435000 (NMMLSC, 2010).
